Reference: US9556152B2, “Heterocyclic amides as kinase inhibitors” (GlaxoSmithKline Intellectual Property Development Limited, priority 2013, dated 2017)

Experiments:
[1] = tested on: mouse TNF and zVAD induced temperature loss in mice; experiment: TNF/zVAD-driven systemic inflammatory response syndrome model (short modality), temperature loss; assay type: in vivo; details: oral pre-dose 30 mg/kg 15 minutes before i.v. mouse TNF and zVAD
Experimental: (§1) TNF (or TNF/zVAD) induced manifestations include temperature loss, the production of numerous cytokines (including IL-6, IL-1b, MIP1β and MIP2) in the periphery, liver and intestinal inflammation and an increase of markers of cellular (LDH and CK) and liver damage (AST and ALT) in the serum.
Each test compound is run through the TNF/zVAD and TNF (alone) versions of the model. For example, mice (7 mice per group) were orally pre-dosed with vehicle or test compound at 50 mg/kg 15 minutes before i.v. administration of mouse TNF (30 m/mouse) and zVAD (0.4 mg/mouse) simultaneously. Temperature loss in the mice was measured by rectal probe. The study was terminated when the control group lost 7 degrees, per our IACUC protocol. […] All data are shown as means±standard error of the mean.

[2] = tested on: mouse TNF induced temperature loss in mice; experiment: TNF (alone)-driven systemic inflammatory response syndrome model (long modality), temperature loss; assay type: in vivo; details: oral pre-dose 50 mg/kg 15 minutes before i.v. mouse TNF
Experimental: as §1
In addition to the TNF/zVAD model, each compound is also tested in a TNF alone model. For the TNF (alone) version of the model, mice (7 mice per group) were orally pre-dosed with vehicle or test compound at 50 mg/kg 15 minutes before i.v. administration of mouse TNF (30 m/mouse). […] All data are shown as means±standard error of the mean.

## CN1C(=O)[C@@H](NC(=O)c2nnc(Cc3ccccc3)[nH]2)COc2ccccc21 [Example 12, (S)-5-benzyl-N-(5-methyl-4-oxo-2,3,4,5-tetrahydrobenzo[b][1,4]oxazepin-3-yl)-4H-1,2,4-triazole-3-carboxamide]
[1]
  % Inhibition: 93%
[2]
  % Inhibition: 87%
